Test results from PMC9860845, “Synthesis, DFT Studies, Molecular Docking and Biological Activity Evaluation of Thiazole-Sulfonamide Derivatives as Potent Alzheimer’s Inhibitors” (Molecules, 2023).
pIC50: −log10 of the molar value.

Key:
[1] = target: butyrylcholinesterase (BuChE) (Homo sapiens, UniProt P06276); assay: In vitro butyrylcholinesterase inhibitory activity (Ellman method); assay type: biochemical; details: read-out: BuChE IC50, pH 7.7, 37 °C, triplicate, ± SEM
[2] = target: acetylcholinesterase (AChE) (Homo sapiens, UniProt P22303); assay: In vitro acetylcholinesterase inhibitory activity (Ellman method); assay type: biochemical; details: read-out: AchE IC50, pH 7.7, 37 °C, triplicate, ± SEM

Q: With `O=[N+]([O-])c1cccc(-c2csc(NNS(=O)(=O)c3cc([N+](=O)[O-])ccc3[N+](=O)[O-])n2)c1` as the compound, how does the pIC50 [1] read?
A: 5.92

Q: And the pIC50 [2]?
A: 6.10
